Experimental data from ChEMBL document CHEMBL1137580, “Synthesis, potency, and in vivo profiles of quinoline containing histamine H3 receptor inverse agonists” (J Med Chem, 2007).

Protein sequences, listed by entry. Tags and fused reporters are not part of them. Lines headed by an entry give the natural chain unless they say otherwise; changes in a name come on top.
UniProt Q9QYN8: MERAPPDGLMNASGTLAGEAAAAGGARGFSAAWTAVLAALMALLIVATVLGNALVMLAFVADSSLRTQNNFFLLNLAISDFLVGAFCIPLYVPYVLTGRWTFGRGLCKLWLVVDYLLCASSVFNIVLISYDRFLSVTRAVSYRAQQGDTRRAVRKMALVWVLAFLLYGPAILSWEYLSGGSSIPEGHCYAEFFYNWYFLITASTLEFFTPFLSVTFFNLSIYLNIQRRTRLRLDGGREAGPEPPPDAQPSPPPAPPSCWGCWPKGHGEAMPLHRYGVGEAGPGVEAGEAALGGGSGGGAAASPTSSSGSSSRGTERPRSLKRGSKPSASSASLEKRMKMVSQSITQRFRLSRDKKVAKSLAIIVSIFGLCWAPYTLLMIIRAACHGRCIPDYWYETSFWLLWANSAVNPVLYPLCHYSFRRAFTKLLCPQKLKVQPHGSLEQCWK

Molecular target: Histamine H3 receptor (Rattus norvegicus, UniProt Q9QYN8)
Experiment: Agonist activity at rat histamine H3 receptor expressed in HEK239 cells assessed as reduction of basal [35S]GTP-gamma-S binding
Format: functional, cell-based

EC50: 17.4 nM
Compound: C[C@@H]1CCCN1CCc1cc2cc(-c3ccc(C#N)cc3)ccc2o1
